Laboratory results reported in ChEMBL document CHEMBL1141206, “Nonsteroidal anti-inflammatory drugs and their analogues as inhibitors of aldo-keto reductase AKR1C3: new lead compounds for the development of anticancer agents” (Bioorg Med Chem Lett, 2005).

Target: T1, Aldo-keto reductase family 1 member C3 (Homo sapiens, UniProt P42330)
T1 sequence (P42330 whole entry): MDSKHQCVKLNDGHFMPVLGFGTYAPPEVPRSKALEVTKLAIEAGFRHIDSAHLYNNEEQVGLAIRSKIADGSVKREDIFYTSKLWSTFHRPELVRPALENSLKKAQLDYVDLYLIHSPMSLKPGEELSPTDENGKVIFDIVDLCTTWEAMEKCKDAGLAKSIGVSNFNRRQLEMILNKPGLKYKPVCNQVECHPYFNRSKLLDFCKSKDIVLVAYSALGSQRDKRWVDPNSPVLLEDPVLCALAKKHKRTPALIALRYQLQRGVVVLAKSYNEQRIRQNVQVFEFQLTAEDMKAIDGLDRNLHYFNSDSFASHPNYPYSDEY
Experiment: Inhibition of recombinant human AKR1C3

Work on `COc1ccc2cc([C@H](C)C(=O)O)ccc2c1` [NAPROXEN] yielded an IC50 of 480 nM.
